System: KB tumor xenografts
Details: for excretion pathway: concluded from biodistribution and PET imaging results

Substance | excretion pathway | PET/CT: kidneys (scans 1 h, 2 h, 3 h p.i.) | PET/CT: radioactivity accumulation in the liver (scans 1 h, 2 h, 3 h p.i.) | PET/CT: salivary glands (scans 1 h, 2 h, 3 h p.i.)
6R-3′-aza-2′-[^18F]fluoro-5-MTHF [6R-[^18F]1] | excreted mainly via the hepatobiliary pathway | clearly visualized 1 h p.i. with 6R-[^18F]1, but nearly invisible at 3 h p.i. | Radioactivity accumulation in the liver was mainly observed | 
6S-3′-aza-2′-[^18F]fluoro-5-MTHF [6S-[^18F]1] | excreted preferably via the renal pathway | high kidney accumulation |  | high radioactivity uptake
